Results reported in article PMC10117637, “Differences in tissue distribution ability of evodiamine and dehydroevodiamine are due to the dihedral angle of the molecule stereo-structure” (Frontiers in Pharmacology, 2023).

Legend:
[1] = Tissue distribution and PK after tail vein injection; type: in vivo, mice
Experimental: The mixture was then transferred to a sterile centrifuge tube after being repeatedly ground for 30 min with a tiny amount of ordinary saline added. After that, saline was added and ultrasonically processed for 1 h. In a vacuum freeze drier, the suspension was freeze-dried for 30 h. To make the injection, the freeze-dried powder was ultimately redissolved in regular saline. After acclimatization, all mice were acclimated before being randomly placed into four groups of three each: EDM (H) group, EDM (L) group, DEDM (H) group, DEDM (L) group. […] Supernatant plasma from the collected sample was transferred into another tube and kept at −80°C until analysis after being centrifuged at 3,000 rpm for 10 min. Immediately after blood was obtained, the mice were dissected. Saline was injected into the heart until the liver turned white. […] The calibration standards, tissue samples, and plasma samples were pretreated with acetonitrile for protein precipitation. […] To remove the denatured protein, the mixture was vortexed for 1 min and then centrifuged at 16,500 rpm for 10 min. The supernatant was finally injected into the LC-MS/MS in an aliquot of 100 µL for analysis. […] Using an isocratic elution, the EDM and DEDM were analyzed. […] With a flow rate of 0.3 mL/min, the ratio between A and B was 20: 80 for 4 min. The column temperature was kept at 35°C. Prior to injection, samples were transferred in an auto-sampler at a temperature of 4°C and 5 µL was the injection volume. […] The ion source was electrospray ionization (ESI) and adopts positive ion mode. The scan mode was multiple reaction monitoring (MRM). The operating conditions for the EDM and DEDM were 4000 V capillary voltage. The dry gas flow was 11 min per liter, and the dry gas temperature was 300°C. […] Acetonitrile was used to prepare standard stock solutions for each type of EDM and DEDM individually. By diluting the standard stock solutions serially with acetonitrile, working standards for the EDM and DEDM were made. The calibration curve samples were acquired by spiking the series working standard solutions (10 μL) into a tube and evaporating the solvent, and then adding blank mouse tissue homogenate or plasma (100 μL). […] DEDM is used as an internal standard compound when detecting EDM. Meanwhile, when DEDM is detected, EDM is used as the internal standard compound. The final concentration of the internal standard compound is 10 ng/mL. […] For the Non-compartmental PK analysis, Thermo Kinetica (Version 5.0, Thermo Electron Corporation, Waltham, MA) was employed. Based on observed data, the time when the maximum tissue concentration was reached (Tmax) and the maximum tissue concentration (Cmax) were assessed. […] Additionally, the mean residence time (MRT) was computed. PK parameters are reported as the mean of […]. Linear and non-linear regressions were analyzed in Microsoft Excel 2016® (United States).

Caco-2 cells = assay: Cell viability assay (MTT), nontoxic concentration; type: cell-based, human; conditions: 48 h
Experimental: The cytotoxicity of EDM and DEDM was assessed in Caco-2 cells using the aforementioned MTT test. These alkaloids were produced as solutions in DMSO and then diluted in cell culture media. Inoculating Caco-2 cells (1 × 10^4cells/well) in 96-well plates with 200 μL of media. After additional 48 h of incubation with EDM and DEDM (final test alkaloids concentrations ranged from 0.4 to 200 μM, and DMSO was less than 0.05%), the medium was discarded. To each well, an aliquot of 190 μL freshly prepared DMEM (serum-free) having 10.0 μL MTT (5 mg/mL) was added. The medium in every well was then removed from the plate after a further 4 h at 37°C of incubation. In 100 μL of DMSO, the purple formazan product was dissolved. Using a microplate reader, the ratio of absorbance (treated to untreated cells) at 490 nm was employed to measure cell viability.

Caco-2 cell monolayers [2] = conditions: pH 7.4
[3] = design: method as in Lin et al., 2012; conditions: ref Lin et al., 2012; cited from earlier work
liver [4] = test system: liver; design: method as in Li et al., 2019; conditions: long-term toxicity experiments, production of AST, LDH, ALT, ALP; ref Li et al., 2019; cited from earlier work
liver [5] = test system: liver; design: method as in Zhang Y. et al., 2018; conditions: C57BL/6 N mice, 80 mg/kg orally; ref Zhang Y. et al., 2018; cited from earlier work
Caco-2 cell monolayers [6] = assay: Caco-2 cell transport assay (Papp, efflux ratio); conditions: Caco-2 monolayers
[7] = Blood, 2.5 mg/kg tail vein, mice, average
[8] = Blood, 5 mg/kg tail vein, mice, average
[9] = Brain, 2.5 mg/kg tail vein, mice, average
[10] = Brain, 5 mg/kg tail vein, mice, average
[11] = Heart, 2.5 mg/kg tail vein, mice, average
[12] = Heart, 5 mg/kg tail vein, mice, average
[13] = Kindy, 2.5 mg/kg tail vein, mice, average
[14] = Kindy, 5 mg/kg tail vein, mice, average
[15] = Liver, 2.5 mg/kg tail vein, mice, average
[16] = Liver, 5 mg/kg tail vein, mice, average
[17] = Lung, 2.5 mg/kg tail vein, mice, average
[18] = Lung, 5 mg/kg tail vein, mice, average
[19] = Spleen, 2.5 mg/kg tail vein, mice, average
[20] = Spleen, 5 mg/kg tail vein, mice, average

**Q.** Which results are given for `C[n+]1c2n(c(=O)c3ccccc31)CCc1c-2[nH]c2ccccc12` [dehydroevodiamine]?
**A.** AUC0-∞ ([1]; mouse, in vivo, 5 mg/kg): 1.36 µg·h/g; MRT ([1]; mouse, in vivo, 5 mg/kg): 4.38 h

**Q.** What does the source list for evodiamine?
**A.** Nontoxic concentration (Caco-2 cells): 12.5 µM; AUC0-t [1, 7]: 0.08 µg·h/g; AUC0-∞ [1, 7]: 0.19 µg·h/g; Cmax [1, 7]: 0.019 µg/g; MRT [1, 7]: 23.50 h; T1/2 [1, 7]: 17.30 h; Tmax [1, 7]: 0.25 h; AUC0-t [1, 8]: 0.25 µg·h/g; AUC0-∞ [1, 8]: 0.56 µg·h/g; Cmax [1, 8]: 0.125 µg/g; MRT [1, 8]: 23.77 h; T1/2 [1, 8]: 19.51 h; Tmax [1, 8]: 0.25 h; AUC0-t [1, 9]: 0.45 µg·h/g; AUC0-∞ [1, 9]: 0.70 µg·h/g; Cmax [1, 9]: 0.057 µg/g; MRT [1, 9]: 11.30 h; T1/2 [1, 9]: 6.53 h; Tmax [1, 9]: 6.00 h; Cmax [1, 10]: 0.110 µg/g; MRT [1, 10]: 6.00 h; Tmax [1, 10]: 4.00 h; AUC0-t ([1]; Brain, 5 mg/kg tail vein, mice, average, 5 mg/kg): 1.10 µg·h/g; AUC0-t ([1]; Brain, 5 mg/kg tail vein, mice, average, listed as EDM, 5 mg/kg): 1.1 µg·h/g; AUC0-t [1, 11]: 0.68 µg·h/g; Cmax [1, 11]: 0.097 µg/g; MRT [1, 11]: 6.02 h; Tmax [1, 11]: 0.25 h; Cmax [1, 12]: 0.176 µg/g; MRT [1, 12]: 6.36 h; Tmax [1, 12]: 6.00 h; AUC0-t ([1]; Heart, 5 mg/kg tail vein, mice, average, 5 mg/kg): 1.66 µg·h/g; AUC0-t ([1]; Heart, 5 mg/kg tail vein, mice, average, listed as EDM, 5 mg/kg): 1.16 µg·h/g; AUC0-t [1, 13]: 1.48 µg·h/g; AUC0-∞ [1, 13]: 1.80 µg·h/g; Cmax [1, 13]: 0.481 µg/g; MRT [1, 13]: 6.98 h; T1/2 [1, 13]: 4.63 h; Tmax [1, 13]: 1.50 h; Cmax [1, 14]: 0.332 µg/g; MRT [1, 14]: 5.56 h; Tmax [1, 14]: 0.25 h; AUC0-t ([1]; Kindy, 5 mg/kg tail vein, mice, average, 5 mg/kg): 2.04 µg·h/g; AUC0-t [1, 15]: 5.99 µg·h/g; AUC0-∞ [1, 15]: 10.19 µg·h/g; Cmax [1, 15]: 0.792 µg/g; MRT [1, 15]: 13.97 h; T1/2 [1, 15]: 9.66 h; Tmax [1, 15]: 0.25 h; AUC0-t [1, 16]: 37.94 µg·h/g; AUC0-∞ [1, 16]: 58.48 µg·h/g; Cmax [1, 16]: 10.128 µg/g; MRT [1, 16]: 11.57 h; T1/2 [1, 16]: 8.84 h; Tmax [1, 16]: 0.25 h; AUC0-t [1, 17]: 445.42 µg·h/g; AUC0-∞ [1, 17]: 1676.98 µg·h/g; Cmax [1, 17]: 45.866 µg/g; MRT [1, 17]: 38.32 h; T1/2 [1, 17]: 26.42 h; Tmax [1, 17]: 6.00 h; AUC0-t [1, 18]: 986.45 µg·h/g; AUC0-∞ [1, 18]: 3,159.59 μg/g*h; Cmax [1, 18]: 113.757 µg/g; MRT [1, 18]: 31.88 h; T1/2 [1, 18]: 22.05 h; Tmax [1, 18]: 0.75 h; AUC0-t [1, 19]: 41.71 µg·h/g; AUC0-∞ [1, 19]: 71.73 µg·h/g; Cmax [1, 19]: 7.473 µg/g; MRT [1, 19]: 13.73 h; T1/2 [1, 19]: 9.30 h; Tmax [1, 19]: 0.50 h; AUC0-t [1, 20]: 38.41 µg·h/g; AUC0-∞ [1, 20]: 74.00 µg·h/g; Cmax [1, 20]: 8.140 µg/g; MRT [1, 20]: 16.53 h; T1/2 [1, 20]: 11.73 h; Tmax [1, 20]: 0.25 h; time to maximum plasma concentration (Cmax) ([1]; mice, plasma, tail vein injection): ≤ 15 min; Papp (Caco-2 cell monolayers [2]): 1 ×10⁻⁶ cm/s and ~1 ×10⁻⁶ cm/s and ≥ 1 ×10⁻⁶ cm/s; oral bioavailability [3]: 0.1%; hepatotoxicity (liver [4]): highly hepatotoxic; hepatotoxicity (liver [5]): no discernible hepatotoxicity; permeability class (Caco-2 cell monolayers [6]; from Papp level): medium permeability; bidirectional transport comparison, secretory (basolateral→apical) vs absorptive (apical→basolateral) permeability (Caco-2 cell monolayers [6]; listed as EDM): nearly equal; also recorded: nearly comparable

Values joined by “and” are separate entries in the source; they are usually repeats but may differ in a detail not shown here. Equal entries are not always repeated. “Also recorded” adds a separate entry of the source. Where two headings read alike, the source gives them in different places.
